Data on 1 compound can be found in US11419921B2, “Methods of treating neurological disorders” (EnClear Therapies, Inc., priority 2018, dated 2022).

This data set deals with iCell® motor neurons. Briefly: Toxicity of (GR)10, untreated or protease-treated, on iCell motor neurons. Type of data set: cell-based. Here is the method: 200 μM of (GR)10 were diluted in human cerebrospinal fluid (CSF) and 400 μL were applied to each immobilized proteases. The reaction was incubated 5 minutes at room temperature with end-to-end mixing. Columns were spun down 1 minute at 1,000 Xg to recover digested GR dipeptides. Columns were washed with 12 resin volumes of PBS. The procedure was repeated with 60 minutes digestion time. 100 μL of each samples were transferred to a clean tube, flash-frozen and subsequently used for LC/MS quantification of GR repeats of different lengths. The remaining 300 μL of each samples were flash-frozen and used to assess neuron toxicity.
300 μL of CSF were applied to each immobilized proteases and incubated 60 minutes at room temperature with end-to-end mixing. Columns were spun down 1 minute at 1,000 Xg to recover treated CSF. Samples were flash-frozen and subsequently used to test neuron toxicity.
This example describes the reduced toxicity of (GR)10 on in vitro neuronal cells by digestion of (GR)10 with proteases.

Turning to `N=C(N)NCCC[C@H](NC(=O)CNC(=O)[C@H](CCCNC(=N)N)NC(=O)CNC(=O)[C@H](CCCNC(=N)N)NC(=O)CNC(=O)[C@H](CCCNC(=N)N)NC(=O)CNC(=O)[C@H](CCCNC(=N)N)NC(=O)CNC(=O)[C@H](CCCNC(=N)N)NC(=O)CNC(=O)[C@H](CCCNC(=N)N)NC(=O)CNC(=O)[C@H](CCCNC(=N)N)NC(=O)CNC(=O)[C@H](CCCNC(=N)N)NC(=O)CNC(=O)[C@H](CCCNC(=N)N)NC(=O)CN)C(=O)O` [(GR)10, reference compound], the EC50 is roughly 50 µM. Moreover, under “iCell motor neurons”, the “Toxicity when (GR)10 dissolved in DMSO instead of water” value was “further enhanced”.

In general, EC50 refers to the concentration that produces a half-maximal response.
